Laboratory results taken from ChEMBL document CHEMBL4342505, “Achieving In Vivo Target Depletion through the Discovery and Optimization of Benzimidazolone BCL6 Degraders” (J Med Chem, 2020).
Values after ≈ are worked out from the molar mass of the structure shown.

Sequences of proteins named here, by UniProt entry; tags and fusion partners are left off.
UniProt Q9Y618, whole entry, looked up: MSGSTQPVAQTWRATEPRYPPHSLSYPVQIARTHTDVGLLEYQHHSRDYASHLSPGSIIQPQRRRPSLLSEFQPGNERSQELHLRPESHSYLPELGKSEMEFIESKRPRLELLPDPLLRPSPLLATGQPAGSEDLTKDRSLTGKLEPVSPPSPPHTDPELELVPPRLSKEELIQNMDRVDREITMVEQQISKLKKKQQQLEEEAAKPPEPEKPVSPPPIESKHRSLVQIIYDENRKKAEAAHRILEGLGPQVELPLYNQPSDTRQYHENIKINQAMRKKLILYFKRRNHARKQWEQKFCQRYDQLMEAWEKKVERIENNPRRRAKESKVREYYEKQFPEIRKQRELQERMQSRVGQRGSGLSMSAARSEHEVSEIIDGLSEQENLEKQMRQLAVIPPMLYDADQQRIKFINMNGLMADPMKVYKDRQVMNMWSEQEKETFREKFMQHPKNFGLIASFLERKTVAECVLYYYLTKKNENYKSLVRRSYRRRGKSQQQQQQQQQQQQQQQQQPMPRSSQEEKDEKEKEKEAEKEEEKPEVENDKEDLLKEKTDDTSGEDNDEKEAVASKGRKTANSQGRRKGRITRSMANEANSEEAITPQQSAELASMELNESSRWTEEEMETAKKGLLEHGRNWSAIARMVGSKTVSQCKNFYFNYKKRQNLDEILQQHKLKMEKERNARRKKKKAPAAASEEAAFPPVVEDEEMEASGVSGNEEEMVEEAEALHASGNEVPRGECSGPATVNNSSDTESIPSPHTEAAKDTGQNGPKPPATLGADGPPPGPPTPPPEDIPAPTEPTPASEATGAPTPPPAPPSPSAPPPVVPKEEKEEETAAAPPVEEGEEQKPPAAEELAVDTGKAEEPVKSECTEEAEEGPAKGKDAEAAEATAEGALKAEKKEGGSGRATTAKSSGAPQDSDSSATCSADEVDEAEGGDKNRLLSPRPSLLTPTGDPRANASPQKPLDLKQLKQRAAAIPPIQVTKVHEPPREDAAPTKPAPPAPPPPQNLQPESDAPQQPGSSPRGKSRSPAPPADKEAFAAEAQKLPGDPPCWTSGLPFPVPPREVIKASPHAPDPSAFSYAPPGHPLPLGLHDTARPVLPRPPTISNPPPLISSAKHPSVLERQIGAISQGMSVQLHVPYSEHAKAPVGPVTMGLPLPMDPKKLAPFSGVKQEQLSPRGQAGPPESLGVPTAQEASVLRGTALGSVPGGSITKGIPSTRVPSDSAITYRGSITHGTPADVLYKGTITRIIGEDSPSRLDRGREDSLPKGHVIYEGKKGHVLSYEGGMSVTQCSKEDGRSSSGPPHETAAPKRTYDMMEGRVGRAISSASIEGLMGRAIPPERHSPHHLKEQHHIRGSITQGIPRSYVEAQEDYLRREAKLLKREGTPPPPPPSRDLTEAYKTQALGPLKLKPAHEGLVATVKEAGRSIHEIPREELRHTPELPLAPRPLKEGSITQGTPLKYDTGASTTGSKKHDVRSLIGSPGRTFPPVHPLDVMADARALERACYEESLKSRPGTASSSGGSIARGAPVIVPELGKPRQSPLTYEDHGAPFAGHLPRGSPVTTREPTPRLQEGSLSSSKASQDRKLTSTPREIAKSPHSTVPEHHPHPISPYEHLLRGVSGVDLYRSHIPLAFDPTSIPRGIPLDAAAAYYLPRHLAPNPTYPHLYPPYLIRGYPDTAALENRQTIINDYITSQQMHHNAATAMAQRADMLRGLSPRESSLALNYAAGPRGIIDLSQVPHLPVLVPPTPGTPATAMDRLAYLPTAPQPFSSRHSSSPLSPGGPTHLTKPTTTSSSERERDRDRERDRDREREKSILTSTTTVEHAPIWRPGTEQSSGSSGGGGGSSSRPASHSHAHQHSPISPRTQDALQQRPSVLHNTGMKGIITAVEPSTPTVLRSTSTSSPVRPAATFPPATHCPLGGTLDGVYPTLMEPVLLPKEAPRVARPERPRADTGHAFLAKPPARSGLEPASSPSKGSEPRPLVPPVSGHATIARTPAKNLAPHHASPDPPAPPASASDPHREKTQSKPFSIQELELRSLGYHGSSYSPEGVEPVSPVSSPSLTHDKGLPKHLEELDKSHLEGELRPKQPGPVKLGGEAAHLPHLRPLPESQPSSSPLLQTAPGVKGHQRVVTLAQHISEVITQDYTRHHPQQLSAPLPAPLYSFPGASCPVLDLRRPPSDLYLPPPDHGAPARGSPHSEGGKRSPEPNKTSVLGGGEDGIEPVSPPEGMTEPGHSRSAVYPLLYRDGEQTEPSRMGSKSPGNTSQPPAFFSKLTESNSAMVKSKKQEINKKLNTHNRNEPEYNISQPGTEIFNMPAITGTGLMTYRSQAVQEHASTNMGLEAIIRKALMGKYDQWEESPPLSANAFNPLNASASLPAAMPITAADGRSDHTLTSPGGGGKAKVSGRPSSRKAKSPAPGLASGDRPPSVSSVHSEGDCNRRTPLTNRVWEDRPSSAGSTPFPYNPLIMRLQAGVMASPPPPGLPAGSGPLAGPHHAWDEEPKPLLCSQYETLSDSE

Experiments:
BCL-6/NCOR2 = BCL-6/NCOR2 (Homo sapiens, UniProt Q9Y618+P41182)
[1] = Kinetic solubility in HEPES buffer containing 5% DMSO at pH 8 incubated for 20 hrs by NMR analysis; format: physicochemical; details: read-out: Kinetic_solubility

Compound	DC50 (BCL-6/NCOR2)	solubility kinetic at 20 h [1]
Cn1c(=O)n(C)c2cc(Nc3ccnc(Cl)c3C#N)ccc21	> 30 µM	–
Cn1c(=O)n(CCC(C)(C)O)c2cc(Nc3ncnc(Cl)c3C#N)ccc21	–	291 µM (≈ 113 µg/mL)
